# Data reported in US20240376226A1, “COMPOSITIONS AND METHODS RELATING TO TUMOR ACTIVATED T CELL ENGAGERS” (Janux Therapeutics, Inc., priority 2019, published 2024).
# Columns and labels:
# Cetuximab (Ab-1, Ab-3) = test: Phagemid competition ELISA, Cetuximab pre-incubated with EGFR; format: binding; conditions: for Phage ELISA 2 nM EGFR % inhib: pre-incubation with 2 nM EGFR; for Phage ELISA 20 nM EGFR % inhib: pre-incubation with 20 nM EGFR
# Trastuzumab (Ab-6, Ab-7) = test: Phagemid competition ELISA, Trastuzumab pre-incubated with soluble HER2; format: binding; conditions: for Phage ELISA 6 nM Her2 % inhib: pre-incubation with 6 nM soluble HER2; for Phage ELISA 20 nM Her2 % inhib: pre-incubation with 20 nM soluble HER2
Structure (SMILES),"Phage ELISA 2 nM EGFR % inhib (Cetuximab (Ab-1, Ab-3))","Phage ELISA 20 nM EGFR % inhib (Cetuximab (Ab-1, Ab-3))","Phage ELISA 6 nM Her2 % inhib (Trastuzumab (Ab-6, Ab-7))","Phage ELISA 20 nM Her2 % inhib (Trastuzumab (Ab-6, Ab-7))"
CC(C)[C@@H]1NC(=O)[C@H](Cc2c[nH]c3ccccc23)NC(=O)[C@H]([C@@H](C)O)NC(=O)[C@H](CC(N)=O)NC(=O)[C@H](CC(=O)O)NC(=O)[C@H](CCC(N)=O)NC(=O)CNC(=O)[C@@H](NC(=O)[C@H](Cc2ccc(O)cc2)NC(=O)CNC(=O)CN)CSSC[C@@H](C(=O)N[C@@H](Cc2ccccc2)C(=O)NCC(=O)NCC(=O)NCC(=O)NCC(=O)N[C@@H](CO)C(=O)NCCOCCOCCOCCOCCC(=O)N[C@@H](CCCCNC(=O)CCCC[C@@H]2SC[C@@H]3NC(=O)N[C@@H]32)C(N)=O)NC(=O)CNC(=O)[C@H](CCC(=O)O)NC(=O)[C@H](CCCNC(=N)N)NC1=O [Peptide-6],95%,95%,–,–
CC[C@H](C)[C@@H]1NC(=O)[C@H](Cc2c[nH]cn2)NC(=O)[C@H](CC(=O)O)NC(=O)[C@H](CC(C)C)NC(=O)[C@H](CC(=O)O)NC(=O)[C@H](CO)NC(=O)[C@@H](NC(=O)[C@H](CC(C)C)NC(=O)[C@@H]2CCCN2C(=O)CNC(=O)CN)CSSC[C@@H](C(=O)N[C@@H](CC(=O)O)C(=O)NCC(=O)NCC(=O)NCC(=O)NCC(=O)N[C@@H](CO)C(=O)NCCOCCOCCOCCOCCC(=O)N[C@@H](CCCCNC(=O)CCCC[C@@H]2SC[C@@H]3NC(=O)N[C@@H]32)C(N)=O)NC(=O)[C@H](CC(C)C)NC(=O)[C@H](CCCNC(=N)N)NC(=O)[C@H]([C@@H](C)O)NC1=O [Peptide-8],–,–,92%,96%
CC[C@H](C)[C@@H]1NC(=O)[C@H](CC(C)C)NC(=O)[C@H](Cc2c[nH]cn2)NC(=O)[C@H](C)NC(=O)[C@H](CC(=O)O)NC(=O)[C@H](C)NC(=O)[C@@H](NC(=O)[C@H](CO)NC(=O)[C@@H](NC(=O)CNC(=O)CN)[C@@H](C)O)CSSC[C@@H](C(=O)N[C@@H](CO)C(=O)NCC(=O)NCC(=O)NCC(=O)NCC(=O)N[C@@H](CO)C(=O)NCCOCCOCCOCCOCCC(=O)N[C@@H](CCCCNC(=O)CCCC[C@@H]2SC[C@@H]3NC(=O)N[C@@H]32)C(N)=O)NC(=O)[C@H](CO)NC(=O)[C@@H]2CCCN2C(=O)[C@H](C)NC1=O [Peptide-2],85%,86%,–,–
CSCC[C@H](NC(=O)CNC(=O)CN)C(=O)N[C@@H](CC(N)=O)C(=O)N[C@H]1CSSC[C@@H](C(=O)N[C@@H](CC(C)C)C(=O)N[C@H](C(=O)NCC(=O)NCC(=O)NCC(=O)NCC(=O)N[C@@H](CO)C(=O)NCCOCCOCCOCCOCCC(=O)N[C@@H](CCCCNC(=O)CCCC[C@@H]2SC[C@@H]3NC(=O)N[C@@H]32)C(N)=O)C(C)C)NC(=O)[C@H](Cc2ccc(O)cc2)NC(=O)[C@H](CCC(=O)O)NC(=O)[C@H](C(C)C)NC(=O)[C@H](Cc2c[nH]c3ccccc23)NC(=O)[C@H](CC(C)C)NC(=O)[C@H](CCCNC(=N)N)NC(=O)[C@H](CC(N)=O)NC(=O)[C@H](CC(C)C)NC1=O [Peptide-5],39%,20%,–,–
CSCC[C@@H]1NC(=O)[C@H](CC(C)C)NC(=O)[C@H](CO)NC(=O)[C@H](CCCNC(=N)N)NC(=O)[C@@H](NC(=O)[C@H](Cc2c[nH]c3ccccc23)NC(=O)[C@H](CC(=O)O)NC(=O)CNC(=O)CN)CSSC[C@@H](C(=O)N2CCC[C@H]2C(=O)NCC(=O)NCC(=O)NCC(=O)NCC(=O)N[C@@H](CO)C(=O)NCCOCCOCCOCCOCCC(=O)N[C@@H](CCCCNC(=O)CCCC[C@@H]2SC[C@@H]3NC(=O)N[C@@H]32)C(N)=O)NC(=O)[C@H](CC(C)C)NC(=O)[C@H](CC(=O)O)NC(=O)[C@H]([C@@H](C)O)NC(=O)[C@H](Cc2ccc(O)cc2)NC(=O)[C@H](CO)NC1=O [Peptide-1],94%,94%,–,–
CC[C@H](C)[C@H](NC(=O)[C@H](Cc1ccccc1)NC(=O)CNC(=O)CN)C(=O)N[C@H]1CSSC[C@@H](C(=O)N[C@@H](CCC(=O)O)C(=O)NCC(=O)NCC(=O)NCC(=O)NCC(=O)N[C@@H](CO)C(=O)NCCOCCOCCOCCOCCC(=O)N[C@@H](CCCCNC(=O)CCCC[C@@H]2SC[C@@H]3NC(=O)N[C@@H]32)C(N)=O)NC(=O)[C@H](CO)NC(=O)CNC(=O)[C@H](CC(=O)O)NC(=O)[C@H](Cc2c[nH]c3ccccc23)NC(=O)[C@H](Cc2c[nH]c3ccccc23)NC(=O)[C@H](CC(N)=O)NC(=O)CNC(=O)[C@H](CC(C)C)NC(=O)[C@H]([C@@H](C)O)NC1=O [Peptide-17],–,–,97%,97%
C[C@@H](O)[C@H](NC(=O)CNC(=O)CN)C(=O)NCC(=O)N[C@H]1CSSC[C@@H](C(=O)N[C@@H](CO)C(=O)NCC(=O)NCC(=O)NCC(=O)NCC(=O)N[C@@H](CO)C(=O)NCCOCCOCCOCCOCCC(=O)N[C@@H](CCCCNC(=O)CCCC[C@@H]2SC[C@@H]3NC(=O)N[C@@H]32)C(N)=O)NC(=O)[C@H]([C@@H](C)O)NC(=O)CNC(=O)[C@H](Cc2c[nH]c3ccccc23)NC(=O)[C@H](Cc2c[nH]cn2)NC(=O)[C@H](Cc2c[nH]c3ccccc23)NC(=O)[C@H](Cc2c[nH]cn2)NC(=O)CNC(=O)[C@H](CCC(=O)O)NC(=O)[C@H]([C@@H](C)O)NC1=O [Peptide-14],–,–,80%,91%
CC(C)C[C@@H]1NC(=O)[C@H](CCC(N)=O)NC(=O)[C@@H](NC(=O)[C@H](Cc2ccccc2)NC(=O)[C@@H](NC(=O)CNC(=O)CN)[C@@H](C)O)CSSC[C@@H](C(=O)N[C@@H](CCC(N)=O)C(=O)N[C@@H](CO)C(=O)NCC(=O)NCC(=O)NCC(=O)NCC(=O)N[C@@H](CO)C(=O)NCCOCCOCCOCCOCCC(=O)N[C@@H](CCCCNC(=O)CCCC[C@@H]2SC[C@@H]3NC(=O)N[C@@H]32)C(N)=O)NC(=O)[C@H](CCC(=O)O)NC(=O)[C@H](Cc2ccc(O)cc2)NC(=O)[C@@H]2CCCN2C(=O)[C@H](CC(=O)O)NC(=O)[C@H](C)NC(=O)[C@H](CC(N)=O)NC1=O [Peptide-11],–,–,95%,96%
CSCC[C@@H]1NC(=O)[C@H](Cc2c[nH]cn2)NC(=O)[C@H](CO)NC(=O)CNC(=O)[C@H](CC(=O)O)NC(=O)[C@H](Cc2c[nH]cn2)NC(=O)[C@@H](NC(=O)[C@H](CO)NC(=O)[C@@H](NC(=O)[C@H](Cc2c[nH]c3ccccc23)NC(=O)CNC(=O)CN)C(C)C)CSSC[C@@H](C(=O)N[C@@H](Cc2ccccc2)C(=O)N[C@@H](Cc2c[nH]cn2)C(=O)NCC(=O)NCC(=O)NCC(=O)NCC(=O)N[C@@H](CO)C(=O)NCCOCCOCCOCCOCCC(=O)N[C@@H](CCCCNC(=O)CCCC[C@@H]2SC[C@@H]3NC(=O)N[C@@H]32)C(N)=O)NC(=O)[C@H]([C@@H](C)O)NC1=O [Peptide-4],39%,39%,–,–
CC(C)C[C@@H]1NC(=O)[C@H]([C@@H](C)O)NC(=O)[C@@H](NC(=O)[C@@H](NC(=O)[C@@H]2CCCN2C(=O)[C@H](CC(N)=O)NC(=O)CNC(=O)CN)C(C)C)CSSC[C@@H](C(=O)N[C@@H](CO)C(=O)N[C@@H](Cc2c[nH]cn2)C(=O)NCC(=O)NCC(=O)NCC(=O)NCC(=O)N[C@@H](CO)C(=O)NCCOCCOCCOCCOCCC(=O)N[C@@H](CCCCNC(=O)CCCC[C@@H]2SC[C@@H]3NC(=O)N[C@@H]32)C(N)=O)NC(=O)[C@H](CCC(=O)O)NC(=O)[C@H](Cc2ccc(O)cc2)NC(=O)[C@@H]2CCCN2C(=O)[C@H](CC(=O)O)NC(=O)CNC1=O [Peptide-10],–,–,94%,94%
CC[C@H](C)[C@@H]1NC(=O)[C@H](Cc2c[nH]c3ccccc23)NC(=O)CNC(=O)[C@H](Cc2c[nH]c3ccccc23)NC(=O)[C@H](CCCNC(=N)N)NC(=O)[C@H](CC(=O)O)NC(=O)[C@@H](NC(=O)[C@H](CC(C)C)NC(=O)CNC(=O)CN)CSSC[C@@H](C(=O)N[C@@H](Cc2c[nH]cn2)C(=O)NCC(=O)NCC(=O)NCC(=O)NCC(=O)N[C@@H](CO)C(=O)NCCOCCOCCOCCOCCC(=O)N[C@@H](CCCCNC(=O)CCCC[C@@H]2SC[C@@H]3NC(=O)N[C@@H]32)C(N)=O)NC(=O)[C@H](Cc2ccc(O)cc2)NC(=O)[C@@H]2CCCN2C(=O)[C@H](C)NC(=O)[C@H](CC(=O)O)NC1=O [Peptide-13],–,–,82%,96%
CC(C)C[C@@H]1NC(=O)[C@H](CO)NC(=O)[C@H](Cc2c[nH]c3ccccc23)NC(=O)[C@H](CC(=O)O)NC(=O)CNC(=O)[C@H](Cc2ccccc2)NC(=O)[C@H]([C@@H](C)O)NC(=O)[C@@H](NC(=O)[C@H](CO)NC(=O)[C@H](Cc2c[nH]cn2)NC(=O)CNC(=O)CN)CSSC[C@@H](C(=O)N[C@@H](C)C(=O)NCC(=O)NCC(=O)NCC(=O)NCC(=O)N[C@@H](CO)C(=O)NCCOCCOCCOCCOCCC(=O)N[C@@H](CCCCNC(=O)CCCC[C@@H]2SC[C@@H]3NC(=O)N[C@@H]32)C(N)=O)NC(=O)[C@H]([C@@H](C)O)NC(=O)CNC1=O [Peptide-16],–,–,85%,98%
CC[C@H](C)[C@@H]1NC(=O)[C@H](CC(C)C)NC(=O)[C@H](CCC(=O)O)NC(=O)[C@@H](NC(=O)[C@H](Cc2ccc(O)cc2)NC(=O)CNC(=O)CNC(=O)CN)CSSC[C@@H](C(=O)N[C@@H](CO)C(=O)N2CCC[C@H]2C(=O)NCC(=O)NCC(=O)NCC(=O)NCC(=O)N[C@@H](CO)C(=O)NCCOCCOCCOCCOCCC(=O)N[C@@H](CCCCNC(=O)CCCC[C@@H]2SC[C@@H]3NC(=O)N[C@@H]32)C(N)=O)NC(=O)[C@H](C(C)C)NC(=O)[C@H](C(C)C)NC(=O)[C@H](Cc2ccc(O)cc2)NC(=O)[C@H](CC(=O)O)NC(=O)CNC1=O [Peptide-12],–,–,95%,95%
CC(C)[C@@H]1NC(=O)[C@H](CCCNC(=N)N)NC(=O)[C@H](CC(=O)O)NC(=O)[C@H](Cc2c[nH]c3ccccc23)NC(=O)[C@H](CCC(N)=O)NC(=O)[C@@H](NC(=O)[C@H](CC(N)=O)NC(=O)CNC(=O)CN)CSSC[C@@H](C(=O)N[C@@H](CO)C(=O)NCC(=O)NCC(=O)NCC(=O)NCC(=O)N[C@@H](CO)C(=O)NCCOCCOCCOCCOCCC(=O)N[C@@H](CCCCNC(=O)CCCC[C@@H]2SC[C@@H]3NC(=O)N[C@@H]32)C(N)=O)NC(=O)[C@H](C)NC(=O)[C@H](Cc2ccc(O)cc2)NC(=O)[C@H]([C@@H](C)O)NC(=O)[C@H](Cc2c[nH]cn2)NC(=O)[C@H](CCC(=O)O)NC1=O [Peptide-3],95%,95%,–,–
